In publication PMC6789111, “Crossing the blood-brain-barrier with nanoligand drug carriers self-assembled from a phage display peptide” (Nature Communications, 2019):

What was measured:
IL-6 = assay: ELISA of IL-6 in hippocampus; type: in vivo, ICR mice; conditions: 24 h after i.v. (LPS 24 h); Ave.
Source text: (§1) Tissues were sectioned at a […] thickness.

TNF-α = conditions: 24 h after i.v. (LPS 24 h); Ave.
Description: as §1
Blood samples were collected for determination of red blood cell count, white blood cell count, haemoglobin, haematocrit, mean corpuscular volume, mean corpuscular haemoglobin, mean corpuscular haemoglobin concentration and platelet count (XFA6030, Perlong Medical Inc., China). Hippocampus was dissected out, rinsed in ice-cold PBS thoroughly, weighted and immediately frozen in liquid nitrogen. Tissues were cut into small pieces and homogenized in 1 mL ice-cold PBS with a glass homogeniser and sonicated with an ultrasonic cell disrupter to break the cell membranes. Homogenates were centrifuges for 5 min at 5,000 × g and supernatants were assayed immediately for quantitative determination of TNF-α, IL-6, IL-1β, Iba-1 and GFAP by corresponding ELISA kits, respectively in accordance with manufacturer’s instructions.

`CC[C@H](C)[C@H](NC(=O)[C@H](CC(N)=O)NC(=O)[C@H](Cc1c[nH]cn1)NC(=O)[C@@H](NC(=O)[C@@H]1CCCN1C(=O)[C@H](CCCNC(=N)N)NC(=O)[C@H](Cc1ccc(O)cc1)NC(=O)CNC(=O)[C@H](CS)NC(=O)c1ccc2c(c1)C(=O)OC21c2ccc(O)cc2Oc2cc(O)ccc21)C(C)C)C(=O)N[C@@H](CCCNC(=N)N)C(=O)NCC(=O)N[C@@H](Cc1c[nH]cn1)C(=O)N[C@@H](Cc1c[nH]c2ccccc12)C(=O)N[C@@H](C)C(=O)N1CCC[C@H]1C(=O)NCC(=O)O` [FAM-CGY, 5-FAM-CGYRPVHNIRGHWAPG] was tested, and the “IL-6 in hippocampus (Figure 6f)” value (IL-6) was 5.89.
“lipopolysaccharide from Escherichia coli O55:B5 [LPS]” was tested, and the “TNF-α in hippocampus (Figure 6e)” value (TNF-α) was 18.56.
